Test results as given in patent publication US20050276794A1, “Composition and method for improving pancreatic islet cell survival” (priority 2004, published 2005).

Tested on: isolated islet cells
Conditions: at much higher concentrations than about 1 to about 5 μM
Procedure: Single islets were hand-picked from a Petri dish under microscopy and transferred to wells in a 96-well microculture plate. Micronutrients comprising alpha-tocopherol (50 μM), gamma-tocopherol (50 μM), and succinate (5 μM) were added to wells in various combinations, with regular media (no added micronutrients) used as control. Islet cell survival was indicated by maintenance of a more compact cell mass, with disruption of the cell mass indicating islet cell death detected by microscopic means. […] Samples are shown in duplicate (a—middle panel, and b—bottom panel), with the corresponding control in the top panel.

## Cc1c(C)c2c(c(C)c1OC(=O)CCC(=O)O)CC[C@@](C)(CCC[C@H](C)CCC[C@H](C)CCCC(C)C)O2 [alpha-tocopheryl succinate]
  toxicity to cells: may be toxic to cells
